The target in this assay is T1, peripheral-type benzodiazepine receptor (PBR) (Homo sapiens, UniProt P30536).
T1 construct: Cell homogenates (50 μg protein) were incubated with 0.5-50 nM [^3H]; PK 11195; endogenous in cells; host or cells: HL-60 cell homogenate
Nature of the assay: Radioligand binding assay, inhibition of [^3H]PK 11195 binding to HL-60 homogenates. On the procedure:
HL-60 cells were harvested by centrifugation at 600 g for 5 min and washing in phosphate-buffered saline. The resulting cell pellet was homogenised in 50 mM Tris/HCl buffer, pH 7.4 (2 ml), using an Ultraturrax homogeniser (10 sec) and then passed 5 times through a 21 gauge needle. Cell homogenates (50 μg protein) were incubated with 0.5-50 nM [^3H] PK 11195 in 50 mM Tris/HCl buffer, pH 7.4 (incubation buffer), in a total volume of 0.5 ml on ice. Total and non-specific/non-saturable binding in each case was determined in the absence and presence of 10 μM unlabelled PK 11195 respectively. All samples were incubated in triplicate for 60 min. The incubation mixtures were then filtered and counted as previously described (O'Beirne, et al., 1988). When testing the potency of a compound to inhibit [^3H] PK 11195 binding, samples were incubated with 2 nM [3H] PK 11195 and various concentrations (0.1 nM to 1 μM) of compound and subsequently treated exactly as above. The resulting Ki values were then generated by the use of the computer programs EBDA and LIGAND.
The amount of radioactivity bound in the presence of the displacer was expressed as a percentage of control bonding and the values represent the mean±SEM of triplicate determinations from one representative experiment performed at least twice. The Ki values were obtained as described in Methods section.

By UniProt entry, the sequences of proteins in these tests, tags left out.
UniProt P30536, whole entry: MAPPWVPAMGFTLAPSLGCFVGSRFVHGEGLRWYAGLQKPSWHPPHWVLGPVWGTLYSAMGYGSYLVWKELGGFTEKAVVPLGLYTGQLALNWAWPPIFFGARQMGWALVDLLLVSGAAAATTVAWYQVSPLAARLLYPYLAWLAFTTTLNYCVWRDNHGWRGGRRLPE

Kd data for 1 molecule are collected here from US6806267B1, “Apoptosis-inducing compounds” (priority 1998, dated 2004).

The structures appear in SMILES notation.

Molecule `CCC(C)N(C)C(=O)c1cc2ccccc2c(-c2ccccc2Cl)n1` (stereo not shown) [[^3H] PK 11195, reference compound] returned a Kd of 17.7 ± 5 nM.

One may read the Kd as the constant that tells how readily two partners part at equilibrium. High values mean a looser complex, low ones a tighter complex.
